Biological target: TBK1 (Homo sapiens (Human), UniProt Q9UHD2)
Assay: TBK1 low ATP kinase assay (in vitro assay 1)
Format: biochemical

Sequences of proteins named here, by UniProt entry; tags and fusion partners are left off. A change or cut given only in a name is not applied to a line headed by its entry.
UniProt Q9UHD2: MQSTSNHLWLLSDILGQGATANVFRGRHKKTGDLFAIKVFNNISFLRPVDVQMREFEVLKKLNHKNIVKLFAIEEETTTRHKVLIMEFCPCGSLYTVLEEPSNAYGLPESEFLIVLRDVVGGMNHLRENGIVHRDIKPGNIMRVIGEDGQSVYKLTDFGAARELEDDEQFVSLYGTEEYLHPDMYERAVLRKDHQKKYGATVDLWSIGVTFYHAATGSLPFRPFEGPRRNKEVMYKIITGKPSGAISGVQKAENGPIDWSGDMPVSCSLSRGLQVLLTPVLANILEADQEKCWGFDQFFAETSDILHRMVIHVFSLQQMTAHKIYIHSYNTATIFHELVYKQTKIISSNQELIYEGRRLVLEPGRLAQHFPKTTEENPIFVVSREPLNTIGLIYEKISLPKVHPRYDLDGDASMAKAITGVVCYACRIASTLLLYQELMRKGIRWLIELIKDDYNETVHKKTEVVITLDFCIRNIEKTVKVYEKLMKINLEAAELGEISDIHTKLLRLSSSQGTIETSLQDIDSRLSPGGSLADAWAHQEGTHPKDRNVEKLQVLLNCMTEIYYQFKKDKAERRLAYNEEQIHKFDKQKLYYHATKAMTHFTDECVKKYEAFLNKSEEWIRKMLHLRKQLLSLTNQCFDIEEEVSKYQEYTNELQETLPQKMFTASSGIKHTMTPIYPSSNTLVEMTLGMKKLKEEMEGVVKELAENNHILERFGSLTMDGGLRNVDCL

Compound: Cc1cc(-c2ccc3nc(Nc4cc(CN5CCN(C(=O)CC(F)(F)F)CC5)ccn4)[nH]c3c2)ncn1 [Example 30.01.01, 3,3,3-trifluoro-1-{4-[(2-{[6-(6-methylpyrimidin-4-yl)-1H-benzimidazol-2-yl]amino}pyridin-4-yl)methyl]piperazin-1-yl}propan-1-one]
- IC50: 15 nM

— patent US10894784B2, “Heteroarylbenzimidazole compounds” (BAYER PHARMA AKTIENGESELLSCHAFT, priority 2015, dated 2021)
